Laboratory results taken from PubChem BioAssay AID624202 (National Center for Advancing Translational Sciences (NCATS), 2012).
Only a part is listed here, and it is no random draw. Calls of active or inactive are those of the source. Calls come from the whole dose curve; as a rule, active = well fitted activation curve with a large enough effect; inconclusive = small, poorly fitted or top-dose-only effect; inactive = no such curve, though single readings can be large or run the other way.

test: qHTS Assay to Identify Small Molecule Activators of BRCA1 Expression; settings: MCF7-BRCA1-FFLuc reporter, luminescence, 48 h, scaled: vehicle 0%, 10 µM genistein 100%; at 46.1 µM (top of the series); note: nearly all actives have a fitted effect of over 80% in size

Q: With `CCC(=O)N(c1ccccc1)C1(COC)CCN(CCc2cccs2)CC1` as the compound, how does the activation read?
A: inactive: 7.84%

Q: Which activation does the source give for `CCC(=O)N(c1ccccc1)C1(COC)CCN(CCn2nnn(CC)c2=O)CC1` here?
A: inactive: 4.15%
